Source: PMC8869358, “High-Throughput Chemical Screening and Structure-Based Models to Predict hERG Inhibition” (Biology, 2022)
Where a name gives a salt, the structure may show the parent alone. Read-outs that look alike come from different tables or passages of the source.

Chains of the proteins cited; added tags and fusions are not shown. Lines headed by an entry give the natural chain unless they say otherwise; changes in a name come on top.
UniProt Q12809: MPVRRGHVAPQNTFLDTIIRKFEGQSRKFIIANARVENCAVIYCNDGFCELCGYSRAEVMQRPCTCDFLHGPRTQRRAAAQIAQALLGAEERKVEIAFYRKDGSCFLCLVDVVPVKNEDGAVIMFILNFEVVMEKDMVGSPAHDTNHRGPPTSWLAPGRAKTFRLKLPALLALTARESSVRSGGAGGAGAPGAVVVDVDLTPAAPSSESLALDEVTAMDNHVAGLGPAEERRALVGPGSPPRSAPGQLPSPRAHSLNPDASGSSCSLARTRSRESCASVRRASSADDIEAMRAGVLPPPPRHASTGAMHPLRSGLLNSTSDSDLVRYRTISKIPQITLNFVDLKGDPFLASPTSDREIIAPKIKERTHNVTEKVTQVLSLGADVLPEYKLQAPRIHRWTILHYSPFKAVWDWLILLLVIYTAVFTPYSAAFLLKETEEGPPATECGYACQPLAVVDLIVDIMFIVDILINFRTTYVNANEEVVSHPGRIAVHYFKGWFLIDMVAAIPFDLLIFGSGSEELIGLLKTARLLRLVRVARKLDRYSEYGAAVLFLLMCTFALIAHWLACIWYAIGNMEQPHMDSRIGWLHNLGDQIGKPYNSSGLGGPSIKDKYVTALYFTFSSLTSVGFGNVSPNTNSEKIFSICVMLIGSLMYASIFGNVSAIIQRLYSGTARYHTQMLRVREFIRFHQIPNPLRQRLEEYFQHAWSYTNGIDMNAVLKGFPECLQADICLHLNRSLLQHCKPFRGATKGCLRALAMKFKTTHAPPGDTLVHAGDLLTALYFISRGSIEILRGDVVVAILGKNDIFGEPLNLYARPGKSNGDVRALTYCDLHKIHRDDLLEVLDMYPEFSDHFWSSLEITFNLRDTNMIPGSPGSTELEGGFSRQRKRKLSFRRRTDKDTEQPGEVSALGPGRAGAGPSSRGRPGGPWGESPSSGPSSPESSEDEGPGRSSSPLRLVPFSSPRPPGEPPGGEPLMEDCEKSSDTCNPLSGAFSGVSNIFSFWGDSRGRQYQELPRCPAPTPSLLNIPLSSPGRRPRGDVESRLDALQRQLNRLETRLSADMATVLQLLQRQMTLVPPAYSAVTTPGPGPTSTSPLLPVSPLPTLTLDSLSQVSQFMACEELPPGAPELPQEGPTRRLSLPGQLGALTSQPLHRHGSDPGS

Assays:
[1] = target: T1, hERG (Homo sapiens, UniProt Q12809); assay: cell-based; settings: (-LOG10(IC50), µM)
[2] = target: T1, hERG; settings: read-out: IC50 reported in patch-clamp assay; cited from earlier work
[3] = target: T1, hERG; design: method as in PMID 29058187; settings: read-out: IC50 reported in thallium flux; cited from earlier work
[4] = target: T1, hERG; assay: Tox21 qHTS FluxOR thallium flux assay in hERG-U2OS cells
[5] = target: T1, hERG

SMILES: C[C@@H](O)[C@H]1C(=O)N2C(C(=O)O)=C(S[C@@H]3CN[C@H](CNS(N)(=O)=O)C3)[C@H](C)[C@H]12 [Doripenem]
- IC50 [1]: 8.82 µM

SMILES: Fc1ccc(C(OCCN2CCN(CCCc3ccccc3)CC2)c2ccc(F)cc2)cc1 [GBR 12909 dihydrochloride, GBR 12909 dihydrochloride (Vanoxerine)]
- IC50 [2]: 0.00084 µM
- IC50 [3]: 0.22 µM
- IC50 ([4]; (-LOG10(IC50), µM), Supplementary File S2, Tox21 chemical library): 0.0756 µM
- IC50 ([4]; IC50, hERG-U2OS cells, thallium flux, qHTS, 15 concentrations, three runs): 0.075 µM

SMILES: O=C1C2(Cl)C3(Cl)C4(Cl)C(Cl)(Cl)C5(Cl)C3(Cl)C1(Cl)C5(Cl)C24Cl (centres unmarked) [Kepone]
- activity outcome for hERG inhibition in the assay [5]: inhibitory activity

SMILES: O[C@@H](c1cc(C(F)(F)F)nc2c(C(F)(F)F)cccc12)[C@H]1CCCCN1 [Mefloquine hydrochloride]
- IC50 [1]: 15.7 µM

SMILES: CN1CCCCC1CCN1c2ccccc2Sc2ccc([S+](C)[O-])cc21 (centres unmarked) [Mesoridazine]
- IC50 [1]: 7.56 µM

SMILES: O=C1Cc2cc(CCN3CCN(c4nsc5ccccc45)CC3)c(Cl)cc2N1 [Ziprasidone]
- IC50 [1]: 5.78 µM

SMILES: CCOP(=S)(OCC)Oc1ccc([N+](=O)[O-])cc1 [parathion]
- activity outcome for hERG inhibition in the assay [5]: inhibitory activity

SMILES: O=P(Oc1ccccc1)(Oc1ccccc1)Oc1ccccc1 [triphenyl phosphate]
- activity outcome for hERG inhibition in the assay [5]: inhibitory activity
